## Ab-14 heavy chain CDR variants: yeast mating affinities

The measurements come from Li et al. 2023 (doi:10.1038/s41467-023-39022-2) through the FLAb antibody collection.

The target is the same throughout: PDVDLGDISGINAS, from the HR2 region of SARS-CoV-2 spike.

Ab-14 is the parent antibody, in scFv form: VH, then three GGGGS repeats, then VL. The light chain is unchanged in all variants.
VH: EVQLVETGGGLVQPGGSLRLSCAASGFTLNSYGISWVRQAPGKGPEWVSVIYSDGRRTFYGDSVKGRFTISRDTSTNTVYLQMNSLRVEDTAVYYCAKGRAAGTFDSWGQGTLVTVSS
VL: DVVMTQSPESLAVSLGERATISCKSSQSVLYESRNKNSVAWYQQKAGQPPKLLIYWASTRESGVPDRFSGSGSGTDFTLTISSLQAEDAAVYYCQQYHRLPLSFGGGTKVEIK

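The parent was found by panning a naive human phage display library on the peptide. The variants were designed computationally from a first round of random CDR variants and then made and measured. Several design methods are mixed in this list. The assay is AlphaSeq: two haploid yeast populations carry antibody and antigen on their surface. After mating in shaken culture at 30 °C for 16 h, diploids were selected and their barcode pairs sequenced. Read counts were normalised to the haploid input and turned into Kd by a linear fit to BCL2-family pairs of known affinity, for each replicate. Mating was done six times.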

Each variant is given by its three heavy chain CDRs, as the data file delimits them; those of the parent are GFTLNSYGIS, VIYSDGRRTFYGDSVK, GRAAGTFDS.
Variants here have more than six changes.
Values are apparent Kd, the geometric mean of the replicates that gave a signal; lower means stronger binding.
"not detected" means that the variant was in the library but no mating with the target was seen in any replicate; the authors take this as a sign of poor binding, and no number exists.
Order: sorted from the lowest average up, undetected variants last.
The range of this assay differs from that of the first round, and the authors advise against merging the two.
In the paper, a design with two or fewer of six values counts as a poor binder.
Background: pairings of all heavy chain designs with three empty control strains gave a value in 1% of cases (median 120 nM, 5th percentile 7.0 nM). Values in that range, when seen in few replicates, are hard to tell from nonspecific mating.

CDR-H1	CDR-H2	CDR-H3	Kd	detected
GFDLNEYGIS	VIYADGKRTAYSDDVK	GEVAGTFDV	99 pM	6 of 6
GFDLNEYGIS	VIYADGRRTAYSDSVK	GEVAGTFVI	130 pM	4 of 6
GFDLNEYGIS	VIYADGQRTAYADSVK	GQNAGTFDM	150 pM	6 of 6
GFDLNEYGIS	VIYADGKRTAYADSVK	GQTAGTFDI	150 pM	6 of 6
GFDLEDYGIS	VIYADGMRTAYADSVK	GNEAGTFDV	160 pM	6 of 6
GFDLNEYGIS	VIYADGMRTAYADSVK	GNVAGTFNL	170 pM	6 of 6
GFDLNEYGIS	VIYADGRRTFYADSVK	GEEAGTFDI	180 pM	6 of 6
GFDLNEYGIS	VIYADGRRTAYDDSVK	GQVAGTFDK	190 pM	1 of 6
GFDLNEYGIS	VIYADGMRTYYADDVK	GTNAGTFDV	200 pM	6 of 6
GFDLNEYGIS	VIYADGVRTAYADKVK	GETAGTFDV	230 pM	6 of 6
GFDLNEYGIS	VIYADGKRTAYADSVK	GKVAGTFNV	240 pM	6 of 6
GFDLNEYGIS	VIYADGMRTAYSDDVK	GSNAGTFDV	240 pM	6 of 6
GFDLNEYGIS	VIYADGMRTFYADSVK	GQNAGTFDV	250 pM	6 of 6
GFDLNEYGIS	VIYADGMRTAYADSVK	GNNAGTFDT	260 pM	6 of 6
GFDLDEYGIS	VIYADGRRTAYIDSVK	GNVAGTFDL	270 pM	6 of 6
GFDLNEYGIS	VIYADGVRQAYADSVK	GTNAGTFDV	280 pM	6 of 6
GFDLNEYGIS	VIYADGIRTFYADSVK	GNEAGTFDS	300 pM	4 of 6
GFDLNEYGIS	VIYADGVRTAYSDSVK	GNTAGTFDM	300 pM	6 of 6
GFDLNEYGIS	VIYADGMRTAYSDDVK	GNTAGTFDQ	310 pM	6 of 6
GFDLNEYGIS	VIYADGMRTVYADSVK	GNNAGTFDI	320 pM	6 of 6
GFDLNEYGIS	VIYADGRRTAYSDSVK	GGNAGTFDM	360 pM	6 of 6
GFDLEEYGIS	VIYADGRRTFYADSVK	GNVAGTFDV	370 pM	6 of 6
GFDLNEYGIS	VIYADGKRTAYIDSVK	GEIAGTFDS	410 pM	6 of 6
GFDLNEYGIS	VIYADGKRTAYADSVK	GNTAGTFDM	420 pM	6 of 6
GFDLNEYGIS	VIYADGRRTFYADSVK	GEIAGTFQF	420 pM	6 of 6
GFDLDEYGIS	VIYADGMRTFYADSVK	GNVAGTFDS	440 pM	6 of 6
GFDLNEYGIS	VIYADGVRTAYVDSVK	GENAGTFDI	540 pM	6 of 6
GFDLNEYGIS	VIYADGSRKAYADSVK	GEVAGTFDV	540 pM	6 of 6
GFDLNEYGIS	VIYADGIRTFYADSVK	GNNAGTFDS	570 pM	6 of 6
GFDLNEYGIS	VIYADGMRTYYADSVK	GNTAGTFDI	580 pM	6 of 6
GFDLNEYGIS	VIYADGMRTFYADSVK	GTAAGTFDQ	610 pM	6 of 6
GFDLNEYGIS	VIYADGQRTFYADSVK	GNVAGTFDL	620 pM	6 of 6
GFDLNEYGIS	VIYADGMRTQYIDSVK	GNMAGTFDV	650 pM	6 of 6
GFDLNEYGIS	VIYADGMRTAYADNVK	GEQAGTFDV	660 pM	6 of 6
GFDLNEYGIS	VIYADGRRTAYSDSVK	GEVGGTFDS	700 pM	6 of 6
GFDLNEYGIS	VIYADGRRTAYIDSVK	GHEAGTFDV	720 pM	6 of 6
GFDLDEYGIS	VIYADGMRTAYVDDVK	GENAGTFDV	740 pM	6 of 6
GFDLDEYGIS	VIYADGQRTAYIDSVK	GNVAGTFDL	770 pM	6 of 6
GFDLNEYGIS	VIYADGKRTAYSDSVK	GNQAGTFDQ	790 pM	6 of 6
GFDLNEYGIS	VIYADGMRTSYSDSVK	GNVAGTFDL	800 pM	6 of 6
GFDLNEYGIS	VIYADGRRTFYTDDVK	GENAGTFDL	820 pM	6 of 6
GFDLDEYGIS	VIYADGMRTFYTDSVK	GENAGTFDV	830 pM	6 of 6
GFDLNEYGIS	VIYADGRRTFYSDSVK	GQTGGTFDQ	930 pM	6 of 6
GFDLNEYGIS	VIYADGTRTAYADSVK	GENAGTFDV	1.0 nM	6 of 6
GFDLEEYGIS	VIYADGKRTFYSDSVK	GEAAGTFDS	1.1 nM	6 of 6
GFDLNEYGIS	VIYADGRRTFYADSVK	GTAGGTFDI	1.1 nM	6 of 6
GFDLNEYGIS	VIYADGMRKAYADDVK	GNVAGTFDT	1.3 nM	2 of 6
GFDLNEYGIS	VIYADGMRTAYSDDVK	GETAGTFDL	1.4 nM	6 of 6
GFDLNEYGIS	VIYADGRRTFYSDSVK	GEVAGTFVL	1.5 nM	6 of 6
GFDLNEYGIS	VIYADGMRQAYADSVK	GTNAGTFDV	3.8 nM	6 of 6
GFDLDEYGIS	VIYADGVRTAYSDSVK	GSNAGTFDV	4.9 nM	3 of 6
GFELNEYGIS	VIYADGMKQAYRDAVK	GGIAGNFMQ	7.1 nM	6 of 6
GFDLNEYGIS	VIYADGKRTKVTDNVK	GTLTGTAVT	12 nM	6 of 6
GFNLNEYGIS	VIYADGRRTFYADSVK	GGYAGTFDV	14 nM	6 of 6
GFDLEDYGIS	VIYADGRRTFYSDSVK	GEIAGTFDK	19 nM	6 of 6
EFDLNEYGIS	VIYADGHRSFYADTVK	GQVAGIFDM	28 nM	6 of 6
GFWLNSYGVS	VIYSDGRRTFYADSVK	GRAPGKFNW	29 nM	4 of 6
GESLDEYGIS	VIYADGMRTAYTDDVK	GLVAGTLVD	35 nM	6 of 6
GFQLDEYGIS	VIYADGMRTFYQDSVK	GEVAGTFDV	36 nM	6 of 6
GFEVDEYGIS	VIYADGKRSMYADKVK	GVIADGMHV	520 nM	1 of 6
GADLNEYGIS	VIYADGQRTVYADTVK	GHHGGIFDM	810 nM	2 of 6
GFDLNEYGIS	VIYADGMRTFYSDSVK	GENAGFFDV	5.9 µM	1 of 6
GFTLDEYGIS	VIYADGTRTTYIDDVK	GQMGGNGYV	13 µM	1 of 6
GFDLQEYGIS	VIYADGQRVNAVSQVK	GEQAGTFKL	not detected	0 of 6
GFDLNEYGIS	VIYADGIRTAYSDQVK	SRDGIVILF	not detected	0 of 6
EFDLEEFGVS	VIYADGKRTAYSDNVK	GHEGAHFDV	not detected	0 of 6
GFQLDEYGIS	VIYADGLRQEYAQKVK	GYNSFDLNQ	not detected	0 of 6
GFDLLEYGIS	VIYADGSRVAYANNVK	GKNNAIGSN	not detected	0 of 6
GFYLDEYGIS	VIYADGQRKVYANNVK	GNFGGLQDY	not detected	0 of 6
GFNLDEYGIS	VIYADGMRQSYAQNVK	GVHVCWFGL	not detected	0 of 6
GFDVDEQGIS	VIYADGRRSQYANSVK	GANGGMFFQ	not detected	0 of 6
GWNLDEYGIS	VIYADGQRTFYVNAVK	GSNGSGITV	not detected	0 of 6
GFDLEEMGIS	VIYADGIRTAVSNDVK	GNVAGTGDF	not detected	0 of 6
GFDLDEYGIS	VIYADGRRTFYADSVK	GTNAGTFIS	not detected	0 of 6
GRDLDEYGIS	VIYADGVRQAYIDSVK	GNWSGTMMY	not detected	0 of 6
GSSLDEYGIS	VIYADGQRVQYADTVK	GIQGGNVDV	not detected	0 of 6
GEDLLEYGIS	VIYADGIRVMYTNQVK	GNVAGFFTL	not detected	0 of 6
GYDLEDYGIS	VIYADGVRQFYHDNFK	GQLAGTFLL	not detected	0 of 6
GYDLDQYGIS	VIYADGMRSVYADSVK	GHEGDILYV	not detected	0 of 6
GFDLNEYGIS	VIYADGRRTAYSDSVK	GEAAGFFDQ	not detected	0 of 6

A selection of 5 entries from above:

{"CDR-H1": "GFDLNEYGIS", "CDR-H2": "VIYADGMRTAYADNVK", "CDR-H3": "GEQAGTFDV", "Kd": "660 pM", "detected": "6 of 6"}
{"CDR-H1": "EFDLNEYGIS", "CDR-H2": "VIYADGHRSFYADTVK", "CDR-H3": "GQVAGIFDM", "Kd": "28 nM", "detected": "6 of 6"}
{"CDR-H1": "GFDLNEYGIS", "CDR-H2": "VIYADGVRQAYADSVK", "CDR-H3": "GTNAGTFDV", "Kd": "280 pM", "detected": "6 of 6"}
{"CDR-H1": "GFDLNEYGIS", "CDR-H2": "VIYADGRRTAYSDSVK", "CDR-H3": "GEVAGTFVI", "Kd": "130 pM", "detected": "4 of 6"}
{"CDR-H1": "GFELNEYGIS", "CDR-H2": "VIYADGMKQAYRDAVK", "CDR-H3": "GGIAGNFMQ", "Kd": "7.1 nM", "detected": "6 of 6"}